# Reference: article PMC12655551, “Design, Synthesis, and Evaluation of Pyrrole-Based Selective MAO-B Inhibitors with Additional AChE Inhibitory and Neuroprotective Properties Identified via Virtual Screening” (Pharmaceuticals, 2025)
# By UniProt entry, the sequences of proteins in these tests, tags left out.
# UniProt P21397, whole entry: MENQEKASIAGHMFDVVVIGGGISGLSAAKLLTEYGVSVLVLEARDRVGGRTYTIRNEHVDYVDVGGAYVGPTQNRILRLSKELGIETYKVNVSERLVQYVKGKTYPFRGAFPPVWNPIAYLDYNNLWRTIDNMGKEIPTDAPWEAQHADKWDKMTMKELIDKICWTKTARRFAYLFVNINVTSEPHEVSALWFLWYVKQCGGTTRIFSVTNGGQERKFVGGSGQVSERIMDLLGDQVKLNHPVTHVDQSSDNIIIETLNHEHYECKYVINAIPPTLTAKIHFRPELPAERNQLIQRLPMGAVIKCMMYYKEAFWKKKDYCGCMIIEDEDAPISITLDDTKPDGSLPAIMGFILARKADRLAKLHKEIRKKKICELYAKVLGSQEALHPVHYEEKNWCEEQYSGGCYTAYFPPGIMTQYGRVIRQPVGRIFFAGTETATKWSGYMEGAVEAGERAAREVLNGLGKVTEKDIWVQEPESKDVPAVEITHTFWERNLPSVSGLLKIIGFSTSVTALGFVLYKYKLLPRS
# Biological target: recombinant human MAO-A (hMAOA) (Homo sapiens, UniProt P21397)
# Experiment: MAO-A inhibition, fluorometric Amplex UltraRed assay
# Conditions: 1 µM compound
smiles,measurement,value
"C#CCN(C)CCCOc1ccc(Cl)cc1Cl [Chlorgyline, reference compound]",Inhibition Activity 1 µM MAO-A,45 ± 6.6%
